# scFv variants of Ab-14 (heavy chain) against a SARS-CoV-2 spike peptide

Target peptide (SARS-CoV-2 spike, HR2 region): PDVDLGDISGINAS

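AAYL49 was designed without a model: most single CDR substitutions and a random sample of double and triple ones. The scFvs were displayed on barcoded MATa yeast, the peptide on MATalpha yeast. After mating in shaken culture at 30 °C for 16 h, diploids were selected and their barcode pairs sequenced. Scores were corrected for input abundance and mapped to Kd with protein pairs of known affinity run in the same pool. Each pool was mated in three replicate cultures.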

Each scFv is VH, the linker GGGGSGGGGSGGGGS, VL, as in the parent Ab-14, and differs from it in the CDRs of the heavy chain only.
VH: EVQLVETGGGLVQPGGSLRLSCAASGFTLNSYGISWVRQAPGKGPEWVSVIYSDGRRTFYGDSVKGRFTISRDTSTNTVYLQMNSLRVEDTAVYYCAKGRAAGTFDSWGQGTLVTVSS
VL: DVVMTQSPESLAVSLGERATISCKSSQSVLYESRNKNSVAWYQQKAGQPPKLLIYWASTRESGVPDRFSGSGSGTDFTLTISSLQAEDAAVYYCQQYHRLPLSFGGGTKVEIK

Each variant is given by its three heavy chain CDRs, as the data file delimits them; those of the parent are GFTLNSYGIS, VIYSDGRRTFYGDSVK, GRAAGTFDS. This list gathers variants with a substitution at I34 (VH, numbered from residue 1). Values are log10 of the apparent Kd in nM; lower means stronger binding. Averages over replicates are reported, and they cover detected replicates only. Where no diploid with the target was found in any replicate, the entry reads "nd": below detection, most likely a poor binder, though not proof of it. Empty control strains, which show no peptide, gave a signal in 15% of pairings with library AAYL49; the median was 4.06 and 95% of these signals were weaker than 2.83. No background was subtracted. The control count says in how many pairings with the empty strains this scFv gave a signal. Parent in this assay: reference entry 0.65, copy in this library 4.11 (one replicate of three).

- GFTLNSYGPS, VIYSDGRRTFYQDSVK, GRAAGTFDS = 3.36 (1 of 3 replicates; controls 1 of 9)
- GFTLNSYGTS, VIYSDGRRTFDGDSMK, GRAAGTFDS = 4.50 (1 of 3 replicates; controls 1 of 9)
- GFTLNSYGYS, VIYSDGRRTFYGWSVK, GRAAGTFDS = nd (0 of 3 replicates; controls 1 of 9)
- GFTLNSYGTS, VIYSEGRRTFYGDSAK, GRAAGTFDS = nd (0 of 3 replicates; controls 1 of 9)
- GFTLNPYGPS, VIYSDGRRTFYGDSVK, GRAAGIFDS = 4.29 (1 of 3 replicates; controls 0 of 9)
- GFTLNSYGES, VYYSDGRRTFYGCSVK, GRAAGTFDS = 4.80 (2 of 3 replicates; controls 3 of 9)
- GFTLNSYGVS, VIYSMGRRTFYGDSVK, GYAAGTFDS = 3.54 (1 of 3 replicates; controls 4 of 9)
- GFTLNSYGES, VIYSDGRRTFRVDSVK, GRAAGTFDS = 5.29 (2 of 3 replicates; controls 4 of 9)
- GFTLNSYGSS, VIYSDGRRTDYGDSVK, GRAAGTFDS = 5.56 (1 of 3 replicates; controls 2 of 9)
- GFTLNSYGFS, VIYSDGRRTFYGDSVA, GRAAGTFDS = 3.86 (1 of 3 replicates; controls 1 of 9)
- GFTLNSFGGS, VIYSDGRRTFYGDSDK, GRAAGTFDS = nd (0 of 3 replicates; controls 1 of 9)
- GFTLNSYIWS, VIYSDGRRTFYGDSVK, GRAAMTFDS = nd (0 of 3 replicates; controls 4 of 9)
- GFTLNSYGRS, VIYSDGRRTWYGDSVK, GRAARTFDS = 3.49 (1 of 3 replicates; controls 3 of 9)
- GFTLNSYGDS, VIYSDGRRTFYGDSVM, GRAAGTFDS = 3.40 (1 of 3 replicates; controls 1 of 9)
- GFTLNSYGCS, VINSDGRRTFYGDSVK, GRAAGTFDR = nd (0 of 3 replicates; controls 1 of 9)
- GFTDNSYGYS, VIYSDGRRTFYGDSVK, GLAAGTFDS = nd (0 of 3 replicates; controls 1 of 9)
- GFTLNSYGRS, VIYSDGRRTFYGDIVK, GRAAGTFDN = 3.96 (2 of 3 replicates; controls 0 of 9)
- GFTLNSYGMS, VIYSDGARTFYGDSVK, GRNAGTFDS = 3.52 (3 of 3 replicates; controls 0 of 9)
- GFTLNSYGAS, VIYSDGRRTFYGDSVK, GRAAGTTDS = nd (0 of 3 replicates; controls 0 of 9)
- GFTLNSYGTS, VIYSDMRRTFYGDSVK, GRAAGTFDS = 4.12 (2 of 3 replicates; controls 2 of 9)
- GFILNSYGCS, VIYSDYRRTFYGDSVK, GRAAGTFDS = nd (0 of 3 replicates; controls 0 of 9)
- GFTLNSYGTS, VIYSDGRRTFYGDSVC, NRAAGTFDS = 4.86 (1 of 3 replicates; controls 1 of 9)
- GFTLNNYGTS, VIYSDGRRTFYGDSVK, CRAAGTFDS = 4.26 (1 of 3 replicates; controls 2 of 9)
- GFTLNSYGLS, VIYSDGRRTFSGDSVK, YRAAGTFDS = nd (0 of 3 replicates; controls 0 of 9)
- GFTLNSYGDS, VIYSDMRRTAYGDSVK, GRAAGTFDS = nd (0 of 3 replicates; controls 0 of 9)
- GFTLNIYGYS, VIQSDGRRTFYGDSVK, GRAAGTFDS = 4.12 (2 of 3 replicates; controls 5 of 9)
- GFTLNSYGRS, VIYSDGRRTFYGDSVK, GREALTFDS = 5.92 (2 of 3 replicates; controls 1 of 9)
- GFTLNSYGQS, VIYSPGRATFYGDSVK, GRAAGTFDS = 3.47 (1 of 3 replicates; controls 1 of 9)
- GFQLNSYGCS, VIRSDGRRTFYGDSVK, GRAAGTFDS = 3.87 (1 of 3 replicates; controls 2 of 9)
- GFTDNSYGHS, VIYSDGRRTFYGDSYK, GRAAGTFDS = 4.17 (2 of 3 replicates; controls 1 of 9)
- GFTLNSYGMS, VIYSWGRRTFYGDMVK, GRAAGTFDS = nd (0 of 3 replicates; controls 0 of 9)
- GFTLNSYGES, VIYIDGRRTFYGDSVK, GRAAGTFDM = nd (0 of 3 replicates; controls 5 of 9)

Excerpt, the final 3 entries:

{"CDR-H1": "GFTDNSYGHS", "CDR-H2": "VIYSDGRRTFYGDSYK", "CDR-H3": "GRAAGTFDS", "log10 Kd (nM), mean": "4.17", "seen in": "2/3", "empty controls": "1/9"}
{"CDR-H1": "GFTLNSYGMS", "CDR-H2": "VIYSWGRRTFYGDMVK", "CDR-H3": "GRAAGTFDS", "log10 Kd (nM), mean": "nd", "seen in": "0/3", "empty controls": "0/9"}
{"CDR-H1": "GFTLNSYGES", "CDR-H2": "VIYIDGRRTFYGDSVK", "CDR-H3": "GRAAGTFDM", "log10 Kd (nM), mean": "nd", "seen in": "0/3", "empty controls": "5/9"}

From the AlphaSeq antibody data of Engelhart et al. 2022 (doi:10.1038/s41597-022-01779-4), copy in the FLAb collection.